{"sequences": {"note": "The chains behind the UniProt entries cited, without tags or fusion partners.", "UniProt O55239, whole entry": "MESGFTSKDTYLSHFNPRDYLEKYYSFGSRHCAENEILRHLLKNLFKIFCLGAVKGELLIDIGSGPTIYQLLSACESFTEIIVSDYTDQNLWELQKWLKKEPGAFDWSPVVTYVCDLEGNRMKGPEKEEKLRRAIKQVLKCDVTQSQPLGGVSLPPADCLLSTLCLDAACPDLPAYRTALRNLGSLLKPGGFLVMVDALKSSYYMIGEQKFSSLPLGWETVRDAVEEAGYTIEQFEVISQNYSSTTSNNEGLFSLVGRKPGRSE"}, "source": "paper PMC7918612", "about": "“Novel Inhibitors of Nicotinamide-N-Methyltransferase for the Treatment of Metabolic Disorders” (Molecules, 2021)", "key": {"[1]": {"assay": "Metabolic stability in rat liver microsomes"}, "[2]": {"assay": "Metabolic stability in mouse liver microsomes", "protocol": "(§1) Experimental Procedures S3: Metabolic stability in human and mouse liver microsomes\n(§2) These profiling studies were carried out as described in Mullangi R. et. al. Preclinical assessment of\n(§3) ulixertinib, a novel ERK1/2 inhibitor, ADMET & DMPK, 2017, 212-223;"}, "mouse NNMT": {"target": "mouse NNMT (Mus musculus, UniProt O55239)", "assay": "Fluorescence-based NNMT enzymatic assay (mouse enzyme)", "protocol": "(§4) Experimental Procedures S2: Fluorescence-based NNMT enzymatic assay\n(§5) NNMT activity was measured by fluorescence based assay. The product MNA formed in the reaction reacts with acetophenone in the presence of KOH and formic acid and forms a fluorescent product 2, 7- naphthyridine. The fluorescence intensity measured with excitation at 375nm and emission at 430nm. Inhibitors were screened using human, mouse and monkey NNMT enzymes. Different concentrations of inhibitors were pre-incubated along with 5ng/well of human NNMT enzyme and 3.42ng/well of mouse NNMT enzyme for 30 minutes at room temperature. Reaction was initiated by addition of SAM and nicotinamide mixture (7µM, 20µM, 8µM SAM and 6µM, 20µM, 9µM nicotinamide for human, mouse and monkey NNMT assays respectively) and incubated for 60 minutes at 37°C. The final assay reaction mixture contained a buffer of 100mM Tris Hcl pH 7.5, 0.04% BSA, 2mM Dithiothreitol and 1% DMSO. The reaction was terminated by addition of Ethanol: Acetophenone mix (75% ethanol: 25% Acetophenone) and 5M potassium Hydroxide prepared with 50% Ethanol. […] A fluorescent product 2, 7- naphthyridine was measured in a Tecan reader with excitation at 375nm and emission at 430nm. The IC50 values were determined by fitting the inhibition curves (percent inhibition versus inhibitor concentration) using a four parametric sigmoidal dose response in graph pad prism. […]"}, "human NNMT": {"target": "human NNMT (Homo sapiens, UniProt P40261)", "assay": "Fluorescence-based NNMT enzymatic assay (human enzyme)", "settings": "read-out: hNNMT IC50", "protocol": "as §4, §5"}, "[3]": {"assay": "Metabolic stability in human liver microsomes", "protocol": "as §1, §2, §3"}}}
{"smiles": "Cc1nn(CC(C)(O)C(=O)N2CCN(c3cccc4cnccc34)CC2)cc1-c1cccc(F)c1", "note": "(racemic)", "values": [{"measurement": "RLM % Remaining at 1 h", "setting": "[1]", "value": "< 5", "unit": "%"}, {"measurement": "MLM % Remaining at 1 h", "setting": "[2]", "value": "< 5", "unit": "%"}, {"measurement": "IC50", "setting": "mouse NNMT; read-out: mNNMT IC50", "value": 440, "unit": "nM"}, {"measurement": "increase in mNNMT enzymatic potency", "setting": "mouse NNMT; relative to (1)", "value": "two-fold increase"}, {"measurement": "IC50", "setting": "human NNMT", "value": 300, "unit": "nM"}, {"measurement": "HLM % Remaining at 1 h", "setting": "[3]", "value": 30, "unit": "%"}]}
